## Yeast mating assay B: variants of the scFv Ab-14

Source: Li et al. 2023 (doi:10.1038/s41467-023-39022-2), MIT Lincoln Laboratory and A-Alpha Bio; data file from the FLAb repository.

The target is the same throughout: PDVDLGDISGINAS, from the HR2 region of SARS-CoV-2 spike.

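The parent was found by panning a naive human phage display library on the peptide. Designed CDR sequences, proposed from the first random library and measured here. Group labels follow the data file (Ctrl: baseline library sampled from a position-specific scoring matrix, with some repeated check sequences; Rand: our label for a block that the file lists under HC and that is probably the random mutants of the ten best first-round binders; GP: Gaussian process model; HC: hill climbing; Gen: genetic algorithm; Gibbs: Gibbs sampling; a sequence that several methods proposed may carry one label only). The assay is AlphaSeq: two haploid yeast populations carry antibody and antigen on their surface. Binding brings cells together so that they mate, and sequencing counts the barcode pairs among the diploids. A regression on co-assayed BCL2-family reference pairs converts the normalised counts of each replicate to an apparent Kd. The assay was run in six technical replicates.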

The variants keep the heavy chain, the linker and the frameworks of Ab-14 (scFv order VH, three GGGGS repeats, VL).
VH: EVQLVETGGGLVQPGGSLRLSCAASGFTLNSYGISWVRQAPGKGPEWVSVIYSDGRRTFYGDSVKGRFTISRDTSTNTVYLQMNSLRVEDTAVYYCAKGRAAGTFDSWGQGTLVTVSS
VL: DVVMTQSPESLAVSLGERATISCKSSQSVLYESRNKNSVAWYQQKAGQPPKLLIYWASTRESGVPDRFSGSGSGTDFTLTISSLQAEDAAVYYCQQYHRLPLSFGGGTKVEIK

Changes read parent residue, position, new residue, counted from the first residue of the VL shown. This list holds designs with at most six substitutions. Values are log10 of the apparent Kd in nM; lower means stronger binding. Where no diploid with the target was found in that replicate, the entry reads "ND": below detection, most likely a poor binder, though not proof of it. In the paper, a design with two or fewer of six values counts as a poor binder.

With S25C/S33K/W56D [GP_HC] the result was 0.33, 0.33, 0.36, 0.34, 0.12, 0.51.
With S25L/S26Q/W56N/E61M [GP_Gen] the result was 0.03, -0.15, -0.38, 0.00, 0.13, 0.40.
With S25V/N35M/W56G/E61C/S103E [GP_HC] the result was 0.42, 0.52, 0.29, 0.13, 0.56, 0.68.
With S25M/S28E/L30W/W56E/T59L/S62Q [GP_Gibbs] the result was -0.14, -0.01, -0.40, -0.32, -0.34, -0.13.
With S25V/V29E/Y31F/W56D [GP_HC] the result was -0.15, -0.41, -0.25, -0.49, -0.48, -0.28.
With S28T/S62V [Ctrl] the result was ND, 3.40, 3.54, 1.90, 2.78, 2.06.
With Q27D/L30D/Y31D/W56K [Ctrl] the result was 0.23, -0.04, -0.18, -0.01, 0.16, 0.07.
With S25F/V29W/W56G/S62N [GP_HC] the result was -0.69, -0.51, -0.28, -0.99, -0.98, -0.63.
With S25V/N35T/S38G/W56N [GP_HC] the result was -0.05, -0.22, -0.57, -0.25, -0.05, -0.29.
With V29D/K36G/W56N/S62D [GP_Gibbs] the result was 0.26, 0.29, 0.10, -0.11, 0.01, 0.21.
With S25A/Q27G/V29D/R34T/W56D [Ctrl] the result was -0.04, -0.09, -0.24, -0.34, -0.21, 0.08.
With S33E/W56A/S58D/L100W [Ctrl] the result was 2.71, 2.10, 2.44, 2.04, 2.75, 2.29.
With S25V/V29Y/W56N/T59Y [GP_Gen] the result was 0.62, 1.09, 0.87, 1.04, 0.78, 1.44.
With S25L/L30G/W56N/E61M [GP_Gen] the result was 0.25, 0.06, -0.01, 0.04, 0.02, 0.20.
With Y31N/L102T [Ctrl] the result was ND, ND, ND, ND, 2.63, ND.
With S25L/S26Q/V29E/W56N/S62V [GP_Gen] the result was 0.07, -0.04, 0.01, -0.03, 0.02, 0.01.
With S25L/S26Q/L30P/W56N/S62E [GP_Gen] the result was -0.03, -0.37, -0.25, -0.45, -0.36, 0.10.
With S25V/V29W/Y31L/W56E/E61Q [GP_HC] the result was -0.25, -0.20, -0.53, -0.48, -0.51, -0.34.
With S25W/S26Q/W56H/A57V [Ctrl] the result was 0.87, 1.13, 1.19, 1.05, 1.08, 0.72.
With S25L/V29W/K36C/W56N [GP_Gen] the result was 0.55, 0.51, 0.51, 0.47, 0.45, 0.63.
With S25V/V29H/L30D/W56H/E61C/Q96D [GP_Gibbs] the result was 1.02, 0.71, 0.38, 0.30, 0.65, 0.69.
With S25V/S26Q/V29Q/N35M/W56N [GP_Gen] the result was 0.40, 0.22, 0.10, 0.03, 0.22, 0.41.
With S25F/Q27P/N35H/W56N [GP_HC] the result was 0.15, -0.14, 0.17, -0.07, 0.42, 0.50.
With S25F/V29W/W56N/S62Q [GP_Gen] the result was -0.21, -0.21, -0.35, -0.33, -0.34, -0.27.
With S25M/W56S/Q95D [Ctrl] the result was 1.09, ND, 1.60, 2.20, 1.19, ND.
With S25L/S26E/V29N/W56N/E61M [GP_Gen] the result was 0.11, 0.10, -0.13, -0.05, 0.01, 0.10.
With S25V/W56D/E61M [GP_Gen] the result was -0.20, -0.29, -0.41, -0.39, -0.35, -0.29.
With S25W/S58D [Ctrl] the result was 1.93, 2.35, ND, ND, 2.59, 2.44.
With Q27S/S33D/R34L/V39I/W56T [Ctrl] the result was 1.36, 0.07, 0.35, -0.07, 0.76, 0.83.
With S25L/S26R/V29T/W56H/S103T [GP_HC] the result was 0.42, 0.55, 0.13, 0.40, 0.33, 0.89.
With L30Y [Ctrl] the result was ND, 1.77, 1.93, 2.05, 1.66, 2.95.
With S25L/Q27C/S28G/L30D/E32W/W56G [GP_Gibbs] the result was 0.22, 0.45, 0.58, 0.56, 0.59, 0.60.
With V29F/N37Y/W56G/P101T [Rand] the result was 0.59, 0.84, 1.47, 1.11, 0.94, 1.05.
With S25L/V29M/W56N/E61L/S62E [GP_Gen] the result was -0.23, -0.27, -0.37, -0.47, -0.36, -0.17.
With S25L/W56N/E61L/S62E [GP_Gen] the result was -0.03, 0.01, -0.04, -0.20, -0.11, -0.21.
With S25L/E32D/N37E/S38P/W56D [Ctrl] the result was 0.30, 0.01, 0.15, -0.08, -0.03, 0.29.
With S25Y/Y31V/A57C/S62D [Ctrl] the result was ND, ND, ND, ND, ND, ND.
With S25V/Q27L/Y31L/K36V/S38A/W56E [GP_Gibbs] the result was -0.36, 1.99, -0.37, 0.09, -0.19, 0.46.
With Q27I/W56E/S62Q [GP_HC] the result was 0.31, 0.65, 0.39, 0.44, 0.83, 0.81.
With S25V/V29F/N35W/W56G/T59Q [GP_HC] the result was 0.63, 0.70, 0.83, 0.96, 0.77, 1.13.
With S33H/R34E [Ctrl] the result was ND, 1.08, 1.68, 0.87, 1.58, 2.10.
With S33E/R34S/W56D [Ctrl] the result was 0.55, -0.19, 0.06, 0.16, -0.14, 0.23.
With S25Y/Q27F/V29Y/Y31N/W56E [GP_Gibbs] the result was 0.69, 0.69, 0.30, 0.11, 0.29, 0.60.
With K36A/A57G/S58V [Ctrl] the result was 1.37, 2.20, 2.23, 1.73, 1.90, 2.23.
With R34T/W56Q [Ctrl] the result was 0.86, 0.42, 0.34, 0.40, 0.28, 0.49.
With S28G/E32D/S62M [Ctrl] the result was 1.61, 1.50, 1.07, 1.20, 1.64, 1.92.
With S26D/S28G/V29T/W56G [GP_HC] the result was 0.73, 0.91, 0.77, 0.22, 0.85, 0.69.
With K24H/Q27P/V29Y/S38N/W56N [GP_HC] the result was -0.07, -0.29, -0.19, -0.19, -0.35, -0.08.
With R34P/T59H/E61A/L102N [Ctrl] the result was ND, ND, ND, ND, ND, ND.
With K24H/S25L/Q27W/S28L/W56N [GP_HC] the result was 0.09, 0.04, -0.04, -0.06, -0.03, 0.15.
With L30F/W56G/S62V [Ctrl] the result was 0.57, 0.18, 0.29, 0.15, -0.03, 0.60.
With S25F/S26E/V29M/W56N/T59Q [GP_Gen] the result was 0.12, 0.52, 0.13, 0.01, 0.04, 0.33.

The 7 strongest on average among those seen in every replicate, once more:

{"changes": "S25F/V29W/W56G/S62N", "group": "GP_HC", "log10 Kd (nM) by replicate": "-0.69, -0.51, -0.28, -0.99, -0.98, -0.63"}
{"changes": "S25V/V29W/Y31L/W56E/E61Q", "group": "GP_HC", "log10 Kd (nM) by replicate": "-0.25, -0.20, -0.53, -0.48, -0.51, -0.34"}
{"changes": "S25V/V29E/Y31F/W56D", "group": "GP_HC", "log10 Kd (nM) by replicate": "-0.15, -0.41, -0.25, -0.49, -0.48, -0.28"}
{"changes": "S25V/W56D/E61M", "group": "GP_Gen", "log10 Kd (nM) by replicate": "-0.20, -0.29, -0.41, -0.39, -0.35, -0.29"}
{"changes": "S25L/V29M/W56N/E61L/S62E", "group": "GP_Gen", "log10 Kd (nM) by replicate": "-0.23, -0.27, -0.37, -0.47, -0.36, -0.17"}
{"changes": "S25F/V29W/W56N/S62Q", "group": "GP_Gen", "log10 Kd (nM) by replicate": "-0.21, -0.21, -0.35, -0.33, -0.34, -0.27"}
{"changes": "S25V/N35T/S38G/W56N", "group": "GP_HC", "log10 Kd (nM) by replicate": "-0.05, -0.22, -0.57, -0.25, -0.05, -0.29"}

A sequence measured in both rounds can read differently, since the two assays cover different ranges. As a blank, each scFv also met three strains without target: over all light chain designs, 4% of these pairings were detected, typically at 2.64 and seldom below 1.59.